Assay results from patent US10407691B2 (priority 2014, dated 2019).

Tested on: Arabidopsis seedlings
Assay: Arabidopsis root growth assay
Assay type: in vivo, Arabidopsis thaliana
Details: At1g72300 mutant line SALK_072802C, 100 nM, 8 days

Compound: CC(C)[C@H](NC(=O)[C@@H](N)Cc1c[nH]cn1)C(=O)NCC(=O)NCC(=O)NCC(=O)N[C@@H](CC(=O)O)C(=O)N[C@@H](Cc1ccc(OS(=O)(=O)O)cc1)C(=O)N1CCC[C@H]1C(=O)N1CCC[C@H]1C(=O)N1CCC[C@H]1C(=O)NCC(=O)N[C@@H](C)C(=O)N[C@@H](CC(N)=O)C(=O)N1CCC[C@H]1C(=O)N[C@@H](CCCCN)C(=O)N[C@@H](Cc1c[nH]cn1)C(=O)N[C@@H](CC(=O)O)C(=O)N1CCC[C@H]1C(=O)N1CCC[C@H]1C(=O)N1CCC[C@H]1C(=O)N[C@@H](CCCNC(=N)N)C(=O)O [RaxX21-sY, HVGGGDY^SPPPGANPKHDPPPR]
- root growth: increased root growth in a similar manner to that observed for treatment of wild type Col-0 seedlings
